Chains of the proteins cited; added tags and fusions are not shown. Lines headed by an entry give the natural chain unless they say otherwise; changes in a name come on top.
UniProt P97266, whole entry: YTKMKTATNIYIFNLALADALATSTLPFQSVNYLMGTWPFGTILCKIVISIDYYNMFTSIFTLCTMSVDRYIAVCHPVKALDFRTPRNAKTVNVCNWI
UniProt P41144: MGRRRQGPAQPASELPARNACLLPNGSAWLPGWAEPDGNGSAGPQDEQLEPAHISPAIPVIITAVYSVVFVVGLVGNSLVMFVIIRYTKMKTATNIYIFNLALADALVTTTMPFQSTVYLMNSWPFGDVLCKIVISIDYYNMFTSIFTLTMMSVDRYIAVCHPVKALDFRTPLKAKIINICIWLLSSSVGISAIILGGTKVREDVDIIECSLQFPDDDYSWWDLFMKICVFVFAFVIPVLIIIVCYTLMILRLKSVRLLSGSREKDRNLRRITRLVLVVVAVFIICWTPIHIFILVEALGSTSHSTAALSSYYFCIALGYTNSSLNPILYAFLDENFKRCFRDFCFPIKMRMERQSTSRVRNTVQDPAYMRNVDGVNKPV

According to ChEMBL document CHEMBL1134211, “8-Carboxamidocyclazocine analogues: redefining the structure-activity relationships of 2,6-methano-3-benzazocines” (Bioorg Med Chem Lett, 2001):

Legend:
Mu-type opioid receptor = Mu-type opioid receptor (Cavia porcellus, UniProt P97266); assay: Displacement of [3H]DAMGO from Opioid receptor mu 1 of guinea pig brain membranes
[1] = molecular target: Kappa-type opioid receptor (Cavia porcellus, UniProt P41144); assay: Displacement of [3H]U-69593 from Opioid receptor kappa 1 of guinea pig brain membranes

## C[C@@H]1[C@@H]2Cc3ccc(C(N)=O)cc3[C@]1(C)CCN2CC1CC1
Mu-type opioid receptor
  Ki: 63 nM
[1]
  Ki: 67 nM

## C[C@H]1[C@H]2Cc3ccc(C(N)=O)cc3[C@@]1(C)CCN2CC1CC1
Mu-type opioid receptor
  Ki: 0.17 nM

## C[C@H]1C2Cc3ccc(C(N)=O)cc3[C@@]1(C)CCN2CC1CC1 (mixture of isomers)
Mu-type opioid receptor
  Ki: 0.41 nM
